Values of other authors as cited in patent US20040254238A1, “Bone growth stimulation with NO/statin and other NO modulating combinations” (OSTEOSCREEN, priority 2003, published 2004).

Tested on: rats
Details: injected locally into the subcutaneous tissues of rats; Wozney 1992; cited from earlier work

B1: BMP-2: recombinant bone morphogenic protein (protein, UniProt P12643 283-396, looked up)
Bone morphogenetic protein 2: QAKHKQRKRLKSSCKRHPLYVDFSDVGWNDWIVAPPGYHAFYCHGECPFPLADHLNSTNHAIVQTLVNSVNSKIPKACCVPTELSAISMLYLDENEKVVLKNYQDMVVEGCGCR
**Q.** For B1, which new bone formation is on record?
**A.** Its new bone formation is “can induce new bone formation”.
